# AlphaSeq binding of Ab-95 light chain variants to a spike HR2 peptide

Source: Engelhart et al. 2022 (doi:10.1038/s41597-022-01779-4), MIT Lincoln Laboratory and A-Alpha Bio; data file from the FLAb repository.

Target peptide (SARS-CoV-2 spike, HR2 region): PDVDLGDISGINAS

The variants keep the heavy chain, the linker and the frameworks of Ab-95 (scFv order VH, the linker GGGGSGGGGSGGGGS, VL).
VH: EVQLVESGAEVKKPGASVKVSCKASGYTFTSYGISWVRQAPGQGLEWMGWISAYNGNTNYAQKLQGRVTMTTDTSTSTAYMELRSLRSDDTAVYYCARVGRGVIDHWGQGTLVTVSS
VL: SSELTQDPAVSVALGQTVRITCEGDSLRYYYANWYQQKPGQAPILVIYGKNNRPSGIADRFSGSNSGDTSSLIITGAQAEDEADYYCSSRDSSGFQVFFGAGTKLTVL

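Library AAYL52 holds single substitutions and randomly drawn double and triple substitutions in the CDRs. The scFvs were displayed on barcoded MATa yeast, the peptide on MATalpha yeast. The frequency of each diploid, read from paired DNA barcodes, reflects how well the two displayed proteins bind. The ratio of observed to expected reads was calibrated, replicate by replicate, on BCL2-family standards whose Kd was known from biolayer interferometry. The assay was run in three technical replicates.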

The parent's light chain CDRs are EGDSLRYYYAN, GKNNRPS, SSRDSSGFQVF; each variant's own CDRs replace them letter for letter. Affinities are written as log10 Kd with Kd in nM; a lower number is a better binder. The mean shown is taken over the replicates in which the pair was detected. Where no diploid with the target was found in that replicate, the entry reads "n.d.": below detection, most likely a poor binder, though not proof of it. Empty control strains, which show no peptide, gave a signal in 28% of pairings with library AAYL52; the median was 3.91 and 95% of these signals were weaker than 2.90. No background was subtracted. The control count says in how many pairings with the empty strains this scFv gave a signal, with their mean in brackets.

CDR-L1 | CDR-L2 | CDR-L3 | log10 Kd (nM) by replicate | log10 Kd (nM), mean | empty controls
EGDSLMYYYAN | GKNNRPS | SSRDSSGFAVF | 2.70 2.89 2.94 | 2.84 | 4/9 (4.54)
EHDSLRYYYAN | MKNNRPS | SSRDSSMFQVF | n.d. 5.41 n.d. | 5.41 | 2/9 (3.71)
EGDSLPYYYAN | GKNNRPS | SSRPSSGFQVT | 2.73 3.93 2.29 | 2.98 | 3/9 (3.01)
EGDSLRYYMAE | GKNNRPS | SSRDSSGFQNF | 3.71 n.d. 2.65 | 3.18 | 2/9 (3.96)
EGDNLRYYYAN | GKNNRPR | SSRDSVGFQVF | 4.45 5.49 n.d. | 4.97 | 5/9 (3.92)
EGDSLRYYYAE | GKNNRPS | SSRDSPGFYVF | 4.67 4.00 n.d. | 4.33 | 0/9
EGDSCRYYYAN | GKNNRPS | SSRDSTGFQVF | 3.94 3.96 n.d. | 3.95 | 5/9 (4.32)
EGNSLRRYYAN | GKNNRPS | SSRDSSGFQVC | 2.99 n.d. 2.92 | 2.96 | 1/9 (2.67)
EGDSLRYYYAN | GKNNRPS | SSWDSSDFQVF | n.d. n.d. n.d. | n.d. | 0/9
EGDSLRYKYAN | GKNNRPS | SSRDSSGFWVD | 2.72 2.66 3.09 | 2.82 | 4/9 (3.97)
EGCSLRYYYAI | GDNNRPS | SSRDSSGFQVF | 3.96 3.30 n.d. | 3.63 | 3/9 (3.54)
EADSLRYYYAN | GKNARPF | SSRDSSGFQVF | 2.98 3.85 4.16 | 3.66 | 1/9 (4.94)
EGDSLRYYYAN | GKHNRPS | SSRDSSLFAVF | 5.36 5.14 n.d. | 5.25 | 1/9 (3.60)
EGDSLRYYYAN | GKNNRPS | SSRKYSGFQVD | 3.98 n.d. 4.73 | 4.35 | 2/9 (3.88)
EGDSRRYYYAN | GKNNRPT | SSRDSSGFQVF | 2.51 3.76 2.73 | 3.00 | 3/9 (3.50)
EGDSLRYYYAN | GKNNRPS | SSRDSSGFQVW | 2.15 1.91 1.91 | 1.99 | 0/9
EGDSLRYPYAQ | GKNNRPS | SSRDSRGFQVF | 3.43 3.21 3.39 | 3.35 | 3/9 (4.27)
EGDDLRYYYVN | GKNNRPS | SSRDSCGFQVF | n.d. n.d. 3.06 | 3.06 | 4/9 (4.44)
EGDSLRYYYAN | GKNSRPS | STRRSSGFQVF | 2.61 2.17 2.59 | 2.46 | 4/9 (3.58)
EGDSLRYYYAN | GKNSRMS | SSRDSSGKQVF | 3.29 3.06 3.18 | 3.18 | 6/9 (3.72)
EGDSLRYLYAN | GKNNRPS | SSRDSQGNQVF | n.d. 2.28 n.d. | 2.28 | 1/9 (4.08)
KGDSLRAYYAN | GKNNRPH | SSRDSSGFQVF | 2.34 1.87 1.45 | 1.89 | 1/9 (4.33)
EGDSLRYYYAN | GKNNRPS | SSRCSSGRQVY | 1.66 1.73 0.95 | 1.45 | 2/9 (3.95)
EGDSLRLYYAN | AKNNRPS | SSRDSSGFQEF | n.d. n.d. n.d. | n.d. | 2/9 (4.13)
EGDSLRYYYAN | GKNNRCS | SSRDFSGFMVF | n.d. 4.60 3.74 | 4.17 | 5/9 (3.74)
HGDSLRYNYAN | GKNMRPS | SSRDSSGFQVF | 0.54 0.48 -0.09 | 0.31 | 7/9 (4.79)
EGDSLRYYHAN | GKNNRPS | SSRDYSGFKVF | 2.11 2.71 2.56 | 2.46 | 0/9
EGDSLRYYYAN | GKKNRPS | SSRSSSGFQVY | 3.76 3.18 n.d. | 3.47 | 3/9 (4.29)
EGDSLRYYYAN | IKNNRHS | SSRDSVGFQVF | n.d. n.d. n.d. | n.d. | 1/9 (3.40)
EGDGLRYYYAR | GKNNRPS | SSRDSSGFQVF | n.d. 3.89 n.d. | 3.89 | 2/9 (4.34)
EGKSLRYYYAN | GKNNRPS | SIRDSSGKQVF | 4.00 2.82 4.22 | 3.68 | 0/9
EGDSLRYYYAN | GKNNRPS | SSRDSSGFQHF | 2.60 2.63 n.d. | 2.61 | 1/9 (4.66)
EGDSLFYYYAA | GKNNRPS | SSRDSSQFQVF | 3.27 4.03 3.03 | 3.44 | 5/9 (3.61)
EGDSLTYYYAN | GKNQRPS | QSRDSSGFQVF | 2.53 2.69 1.83 | 2.35 | 3/9 (4.12)
EGDSSRYYYKN | GKNNRTS | SSRDSSGFQVF | 3.76 3.76 3.44 | 3.65 | 4/9 (3.59)
EGDSWRYYYAN | GKNNRVS | SSRDSSYFQVF | 4.02 n.d. n.d. | 4.02 | 2/9 (4.03)
EGDSLRFYYNN | GKNNRPS | SSADSSGFQVF | 3.25 n.d. 4.08 | 3.67 | 4/9 (4.19)
EGDSLRYYYAN | QKNNRPS | SSRDSSSFHVF | 5.76 3.94 n.d. | 4.85 | 6/9 (3.93)
EYDSLRYYYAN | GKQNRPL | SSRDSSGFQVF | 4.31 3.12 4.35 | 3.93 | 1/9 (3.13)
EGHSFRYYYAN | GKNNRPS | SSRDSSGFQWF | 3.32 3.96 4.28 | 3.85 | 4/9 (4.19)
AGDSKRYYYAN | GKNNRPS | SSRDESGFQVF | 3.71 3.96 3.88 | 3.85 | 1/9 (4.27)
EGDSLRYYYAN | WKNQRKS | SSRDSSGFQVF | n.d. 4.07 4.28 | 4.17 | 1/9 (3.67)
EGDSLRYYYAN | DKNNRPM | SSRYSSGFQVF | 3.40 3.52 n.d. | 3.46 | 3/9 (3.52)
EGDSLRYYYAN | GKNNRPS | SSRDCGGFQKF | 4.41 3.47 3.71 | 3.86 | 2/9 (4.24)
CGDSLRYYYAN | GKNNRPS | SSEDSSFFQVF | n.d. 3.78 n.d. | 3.78 | 0/9
EGDSLRYYYAN | GDNNRPS | SPRDSSGFSVF | 2.42 2.30 1.66 | 2.13 | 3/9 (3.80)

Top 7 of the variants detected in all replicates, tightest first:

CDR-L1,CDR-L2,CDR-L3,log10 Kd (nM) by replicate,"log10 Kd (nM), mean",empty controls
HGDSLRYNYAN,GKNMRPS,SSRDSSGFQVF,0.54 0.48 -0.09,0.31,7/9 (4.79)
EGDSLRYYYAN,GKNNRPS,SSRCSSGRQVY,1.66 1.73 0.95,1.45,2/9 (3.95)
KGDSLRAYYAN,GKNNRPH,SSRDSSGFQVF,2.34 1.87 1.45,1.89,1/9 (4.33)
EGDSLRYYYAN,GKNNRPS,SSRDSSGFQVW,2.15 1.91 1.91,1.99,0/9
EGDSLRYYYAN,GDNNRPS,SPRDSSGFSVF,2.42 2.30 1.66,2.13,3/9 (3.80)
EGDSLTYYYAN,GKNQRPS,QSRDSSGFQVF,2.53 2.69 1.83,2.35,3/9 (4.12)
EGDSLRYYYAN,GKNSRPS,STRRSSGFQVF,2.61 2.17 2.59,2.46,4/9 (3.58)

For reference, the parent read 2.31 as the reference entry and 2.25 as a member of this library.